In US20030119067A1, “PYK2 related products and methods” (Sugen, Inc., priority 1996, published 2003):

Target: PYK2 (human, wild type, full length, transiently overexpressed in 293/293T cells) (human)
Assay: cell-based or functional assay

Work on “endogenous Src of human embryonic kidney 293T cells (from UniProt P12931 2-536) (enzyme)” yielded an endogenous Src activity (pY416Src phosphorylation) in 293T cells of 4 fold.
